According to article PMC12392461, “Beyond Estrogenicity: A Comparative Assessment of Bisphenol A and Its Alternatives in In Vitro Assays Questions Safety of Replacements” (Environmental Science & Technology, 2025):

Test system: Tox21 assays
Experiment: Re-evaluated Tox21 data (Adamovsky et al.), REPBPA and SRbaseline;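 note: published Tox21 results reanalysed with a revised model predicting baseline toxicity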
Details: TOX21_PPARg_BLA_antagonist_ratio; Relative Effect Potency

CC(c1ccc(O)cc1)c1ccc(O)cc1 [BPE, 4,4′-Ethylidenbisphenol]
REPBPA: 0.18

Oc1ccc(Sc2ccc(O)cc2)cc1 [BPT, 4,4'-Thiodiphenol]
REPBPA: 0.69

Cc1cc(C(C)(C)c2ccc(O)c(C)c2)ccc1O [BPC]
REPBPA: 0.60

Oc1ccc(Cc2ccc(O)cc2)cc1 [BPF, Bis(4-hydroxyphenyl)methane]
REPBPA: 0.19

CC(C)(c1cc(Cl)c(O)c(Cl)c1)c1cc(Cl)c(O)c(Cl)c1 [TCBPA, 2,2',6,6'-Tetrachlorobisphenol A]
REPBPA: 4.59

Oc1ccc(C(c2ccc(O)cc2)(C(F)(F)F)C(F)(F)F)cc1 [BPAF, 4,4'-(1,1,1,3,3,3-Hexafluoropropane-2,2-diyl)diphenol]
REPBPA: 0.32
